Assay results published in patent US20070105759A1 (priority 2003, published 2007).

The chains behind the UniProt entries cited, without tags or fusion partners.
UniProt P32245, whole entry: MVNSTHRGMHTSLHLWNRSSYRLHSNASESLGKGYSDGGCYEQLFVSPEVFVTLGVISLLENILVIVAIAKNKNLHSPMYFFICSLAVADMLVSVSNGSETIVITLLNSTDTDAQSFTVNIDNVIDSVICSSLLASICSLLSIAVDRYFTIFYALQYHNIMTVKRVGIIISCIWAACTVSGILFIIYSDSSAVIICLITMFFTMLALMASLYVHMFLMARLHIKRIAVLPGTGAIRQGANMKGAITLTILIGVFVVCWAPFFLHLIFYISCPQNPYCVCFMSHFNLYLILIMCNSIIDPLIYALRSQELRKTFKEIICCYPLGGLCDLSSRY

The compounds below were run against MC4 (Homo sapiens, UniProt P32245). Settings: read-out: MC4 Ki.

| Structure (SMILES) | Ki [nM] |
| --- | --- |
| N=C(N)NCCC[C@@H]1NC(=O)[C@@H](Cc2ccccc2)NC(=O)[C@H](Cc2c[nH]cn2)NC(=O)[C@@H](NC(=O)C2CC2)CCSSC[C@@H](C(N)=O)NC(=O)[C@H](Cc2c[nH]c3ccccc23)NC1=O [Compound No. 141, N-cyclopropanecarbonyl-cyclo[hCys-His-D-Phe-Arg-Trp-Cys]-NH2] | 0.19 |
| N=C(N)NCCC[C@@H]1NC(=O)[C@@H](Cc2ccccc2)NC(=O)[C@H](Cc2c[nH]cn2)NC(=O)[C@@H](N)CCSSC[C@@H](C(=O)O)NC(=O)[C@H](Cc2c[nH]c3ccccc23)NC1=O [Compound No. 133, cyclo[hCys-His-D-Phe-Arg-Trp-Cys]-OH] | 9.08 |
| CC(=O)N[C@@H](Cc1ccc(O)cc1)C(=O)N[C@@H](CCCNC(=N)N)C(=O)N[C@H]1CSSC[C@@H](C(N)=O)NC(=O)[C@H](Cc2c[nH]c3ccccc23)NC(=O)[C@H](CCCNC(=N)N)NC(=O)[C@@H](Cc2ccccc2)NC(=O)[C@H](Cc2c[nH]cn2)NC(=O)[C@H]([C@@H](C)O)NC1=O [Compound No. 22, Ac-Tyr-Arg-cyclo[Cys-Thr-His-D-Phe-Arg-Trp-Cys]-NH2] | 0.27 |
| CC(=O)N[C@@H](CC(C)C)C(=O)N[C@H]1CSSC[C@@H](C(N)=O)NC(=O)[C@H](Cc2c[nH]c3ccccc23)NC(=O)[C@H](CCCNC(=N)N)NC(=O)[C@@H](Cc2ccccc2)NC(=O)[C@H](Cc2c[nH]cn2)NC(=O)[C@H](CCC(=O)O)NC1=O [Compound No. 57, Ac-Leu-cyclo[Cys-Glu-His-D-Phe-Arg-Trp-Cys]-NH2] | 2.26 |
| CC1(C)SSCC[C@H](NC(=O)C2CCCCC2)C(=O)N[C@@H](Cc2c[nH]cn2)C(=O)N[C@H](Cc2ccccc2)C(=O)N[C@@H](CCCNC(=N)N)C(=O)N[C@@H](Cc2c[nH]c3ccccc23)C(=O)N[C@@H]1C(N)=O [Compound No. 172, N-cyclohexanecarbonyl-cyclo[hCys-His-D-Phe-Arg-Trp-penicillamine]-NH2] | 0.15 |
| CCCC[C@H](NC(C)=O)C(=O)N[C@H]1CSSC[C@@H](C(N)=O)NC(=O)[C@H](Cc2c[nH]c3ccccc23)NC(=O)[C@H](CCCNC(=N)N)NC(=O)[C@@H](Cc2ccccc2)NC(=O)[C@H](Cc2c[nH]cn2)NC(=O)[C@H](CCC(=O)O)NC1=O [Compound No. 60, Ac-nLeu-cyclo[Cys-Glu-His-D-Phe-Arg-Trp-Cys]-NH2] | 1.51 |
| CC(=O)N[C@@H](CCCCNC(=N)N)C(=O)N[C@H]1CSSC[C@@H](C(N)=O)NC(=O)[C@H](Cc2c[nH]c3ccccc23)NC(=O)[C@H](CCCNC(=N)N)NC(=O)[C@@H](Cc2ccccc2)NC(=O)[C@H](Cc2c[nH]cn2)NC(=O)[C@H](CCC(=O)O)NC1=O [Compound No. 54, Ac-hArg-cyclo[Cys-Glu-His-D-Phe-Arg-Trp-Cys]-NH2] | 0.48 |
| CC(=O)N[C@@H](Cc1ccc(O)cc1)C(=O)N[C@@H](CCCNC(=N)N)C(=O)N[C@H]1CSSC[C@@H](C(N)=O)NC(=O)[C@H](Cc2c[nH]c3ccccc23)NC(=O)[C@H](CCCNC(=N)N)NC(=O)[C@@H](Cc2ccccc2)NC(=O)[C@H](Cn2cccn2)NC(=O)[C@H](CCC(=O)O)NC1=O [Compound No. 102, Ac-Tyr-Arg-cyclo[Cys-Glu-(1-pyrazolyl-Ala)-D-Phe-Arg-Trp-Cys]-NH2] | 105 |
| CC(=O)N[C@H]1CCSSCC[C@@H](C(N)=O)NC(=O)[C@H](Cc2c[nH]c3ccccc23)NC(=O)[C@H](CCCNC(=N)N)NC(=O)[C@@H](Cc2ccccc2)NC(=O)[C@H](Cc2c[nH]cn2)NC1=O [Compound No. 193, Ac-cyclo[hCys-His-D-Phe-Arg-Trp-hCys]-NH2] | 2.59 |
| N=C(N)NCCC[C@@H]1NC(=O)[C@@H](Cc2ccccc2)NC(=O)[C@H](Cc2c[nH]cn2)NC(=O)[C@H](CCC(=O)O)NC(=O)[C@@H](NC(=O)[C@@H](N)CCCNC(=N)N)CSSC[C@@H](C(=O)O)NC(=O)[C@H](Cc2c[nH]c3ccccc23)NC1=O [Compound No. 45, Arg-cyclo[Cys-Glu-His-D-Phe-Arg-Trp-Cys]-OH] | 3.03 |
| CC(=O)N[C@H]1CSSCC[C@@H](C(N)=O)NC(=O)[C@H](Cc2c[nH]c3ccccc23)NC(=O)[C@H](CCCNC(=N)N)NC(=O)[C@@H](Cc2ccc(Cl)cc2)NC(=O)[C@H](Cc2c[nH]cn2)NC1=O [Compound No. 185, Ac-cyclo[Cys-His-(4-Cl-D-Phe)-Arg-Trp-hCys]-NH2] | 0.47 |
| CC(=O)N[C@@H](Cc1ccc(O)cc1)C(=O)N[C@@H](CCCNC(=N)N)C(=O)N[C@H]1CSSC[C@@H](C(N)=O)NC(=O)[C@H](Cc2c[nH]c3ccccc23)NC(=O)[C@H](CCCNC(=N)N)NC(=O)[C@@H](Cc2ccccc2)NC(=O)[C@@H](Cc2nc(-c3ccccc3)c[nH]2)NC(=O)[C@H](CCC(=O)O)NC1=O [Compound No. 104, Ac-Tyr-Arg-cyclo[Cys-Glu-(4-phenyl-1H-imidazol-2-yl-D-Ala)-D-Phe-Arg-Trp-Cys]-NH2] | 136 |
| CC(=O)N[C@H]1CCSSC[C@@H](C(N)=O)NC(=O)[C@H](Cc2c[nH]c3ccccc23)NC(=O)[C@H](CCCNC(=N)N)NC(=O)[C@@H](CC2CCCCC2)NC(=O)[C@H](Cc2c[nH]cn2)NC1=O [Compound No. 167, Ac-cyclo[hCys-His-(β-cyclohexyl-D-Ala)-Arg-Trp-Cys]-NH2] | 93.1 |
| N=C(N)NCCC[C@@H]1NC(=O)[C@@H](Cc2ccccc2)NC(=O)[C@H](Cc2c[nH]cn2)NC(=O)[C@@H](NC(=O)CNS(=O)(=O)c2ccccc2)CCSSC[C@@H](C(N)=O)NC(=O)[C@H](Cc2c[nH]c3ccccc23)NC1=O [Compound No. 161, phenylsulfonyl-Gly-cyclo[hCys-His-D-Phe-Arg-Trp-Cys]-NH2] | 0.08 |
| COC(=O)[C@@H]1CSSC[C@H](NC(=O)[C@H](CCCNC(=N)N)NC(=O)[C@H](Cc2ccc(O)cc2)NC(C)=O)C(=O)N[C@@H](CCC(N)=O)C(=O)N[C@@H](Cc2c[nH]cn2)C(=O)N[C@H](Cc2ccccc2)C(=O)N[C@@H](CCCNC(=N)N)C(=O)N[C@@H](Cc2c[nH]c3ccccc23)C(=O)N1 [Compound No. 10, Ac-Tyr-Arg-cyclo[Cys-Gln-His-D-Phe-Arg-Trp-Cys]-OMe] | 0.1 |
| CC(=O)N[C@@H](Cc1ccc(O)cc1)C(=O)N[C@@H](CCCCNC(=N)N)C(=O)N[C@H]1CSSC[C@@H](C(N)=O)NC(=O)[C@H](Cc2c[nH]c3ccccc23)NC(=O)[C@H](CCCNC(=N)N)NC(=O)[C@@H](Cc2ccccc2)NC(=O)[C@H](Cc2c[nH]cn2)NC(=O)[C@H](CCC(=O)O)NC1=O [Compound No. 126, Ac-Tyr-hArg-cyclo[Cys-Glu-His-D-Phe-Arg-Trp-Cys]-NH2] | 0.74 |
| CCCC[C@H](NC(C)=O)C(=O)N[C@H]1CSSC[C@@H](C(=O)N[C@@H](CO)C(=O)N2CCC[C@H]2C(N)=O)NC(=O)[C@H](Cc2c[nH]c3ccccc23)NC(=O)[C@H](CCCNC(=N)N)NC(=O)[C@@H](Cc2ccccc2)NC(=O)[C@H](Cc2c[nH]cn2)NC(=O)[C@H](CCC(=O)O)NC1=O [Compound No. 61, Ac-nLeu-cyclo[Cys-Glu-His-D-Phe-Arg-Trp-Cys]-Ser-Pro-NH2] | 0.87 |
| CC(=O)N[C@H]1CSSC[C@@H](C(N)=O)NC(=O)[C@H](Cc2c[nH]c3ccccc23)NC(=O)[C@H](CCCNC(=N)N)NC(=O)[C@@H](Cc2ccccc2)NC(=O)[C@H](Cc2c[nH]cn2)NC(=O)[C@H](CCCCN)NC1=O [Compound No. 16, Ac-cyclo[Cys-Lys-His-D-Phe-Arg-Trp-Cys]-NH2] | 0.83 |
| N=C(N)NCCC[C@@H]1NC(=O)[C@@H](Cc2ccccc2)NC(=O)[C@H](Cc2c[nH]cn2)NC(=O)[C@@H](NC(=O)C2CCCCC2)CCSSC[C@@H](C(N)=O)NC(=O)[C@H](Cc2c[nH]c3ccccc23)NC1=O [Compound No. 144, N-cyclohexanecarbonyl-cyclo[hCys-His-D-Phe-Arg-Trp-Cys]-NH2] | 0.3 |
| CC(=O)N[C@@H](Cc1ccc(O)cc1)C(=O)N[C@@H](CCCNC(=N)N)C(=O)N[C@H]1CSSC[C@@H](C(N)=O)NC(=O)[C@H](Cc2c[nH]c3ccccc23)NC(=O)[C@H](CCCNC(=N)N)NC(=O)[C@@H](Cc2ccccc2)NC(=O)[C@H](Cc2c[nH]cn2)NC(=O)[C@@H]2CCCN2C1=O [Compound No. 20, Ac-Tyr-Arg-cyclo[Cys-Pro-His-D-Phe-Arg-Trp-Cys]-NH2] | 0.48 |
| N=C(N)NCCC[C@@H]1NC(=O)[C@@H](Cc2ccccc2)NC(=O)[C@H](Cc2c[nH]cn2)NC(=O)[C@@H](NS(=O)(=O)c2ccc3ccccc3c2)CCSSC[C@@H](C(N)=O)NC(=O)[C@H](Cc2c[nH]c3ccccc23)NC1=O [Compound No. 151, N-(2-naphthalenesulfonyl)-cyclo[hCys-His-D-Phe-Arg-Trp-Cys]-NH2] | 4.35 |
| N=C(N)NCCCCC(=O)N[C@H]1CCSSC[C@@H](C(N)=O)NC(=O)[C@H](Cc2c[nH]c3ccccc23)NC(=O)[C@H](CCCNC(=N)N)NC(=O)[C@@H](Cc2ccccc2)NC(=O)[C@H](Cc2c[nH]cn2)NC1=O [Compound No. 149, 5-guanidinovaleryl-cyclo[hCys-His-D-Phe-Arg-Trp-Cys]-NH2] | 0.07 |
| CC(=O)N[C@H]1CCSSC(C)(C)[C@@H](C(N)=O)NC(=O)[C@H](Cc2c[nH]c3ccccc23)NC(=O)[C@H](CCCNC(=N)N)NC(=O)[C@@H](Cc2ccc(Cl)cc2)NC(=O)[C@H](Cc2c[nH]cn2)NC1=O [Compound No. 169, Ac-cyclo[hCys-His-(4-Cl-D-Phe)-Arg-Trp-penicillamine]-NH2] | 0.03 |
| N=C(N)NCCC[C@@H]1NC(=O)[C@@H](Cc2ccccc2)NC(=O)[C@H](Cc2c[nH]cn2)NC(=O)[C@@H](NC(=O)[C@@H](N)CCCNC(=N)N)CSSCC[C@@H](C(N)=O)NC(=O)[C@H](Cc2c[nH]c3ccccc23)NC1=O [Compound No. 186, Arg-cyclo[Cys-His-D-Phe-Arg-Trp-hCys]-NH2] | 5.21 |
| CC(=O)N[C@@H](Cc1ccc(O)cc1)C(=O)N[C@@H](CCCNC(=N)N)C(=O)N[C@H]1CSSC[C@@H](C(N)=O)NC(=O)[C@H](Cc2c[nH]c3ccccc23)NC(=O)[C@H](CCCNC(=N)N)NC(=O)[C@@H](Cc2ccccc2)NC(=O)[C@@H](Cc2nc[nH]n2)NC(=O)[C@H](CCC(=O)O)NC1=O [Compound No. 107] | 500 |
| N=C(N)NCCC[C@@H]1NC(=O)[C@@H](Cc2ccccc2)NC(=O)[C@H](Cc2c[nH]cn2)NC(=O)[C@@H](N)CSSCC[C@@H](C(N)=O)NC(=O)[C@H](Cc2c[nH]c3ccccc23)NC1=O [Compound No. 180, cyclo[Cys-His-D-Phe-Arg-Trp-hCys]-NH2] | 16.5 |
